Measured values: BindingDB's records for doi:10.1021/jm0308904 (Universitat Hamburg, 2004)

Protein sequences, listed by entry. Tags and fused reporters are not part of them.
UniProt Q00535, whole entry: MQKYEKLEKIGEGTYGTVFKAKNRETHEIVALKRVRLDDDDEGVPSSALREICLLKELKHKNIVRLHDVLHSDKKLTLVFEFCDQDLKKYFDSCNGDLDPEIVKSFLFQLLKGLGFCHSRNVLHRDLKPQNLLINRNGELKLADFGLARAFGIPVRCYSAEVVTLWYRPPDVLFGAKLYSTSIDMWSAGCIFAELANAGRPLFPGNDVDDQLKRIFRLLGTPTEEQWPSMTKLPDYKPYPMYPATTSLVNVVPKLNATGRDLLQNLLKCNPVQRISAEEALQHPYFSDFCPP

Molecular target: Cyclin-dependent kinase 5 activator 1 [99-307] (Homo sapiens, UniProt Q00535)
Conditions: 30 °C

CC(=O)Nc1ccc2[nH]c3c(c2c1)CC(=O)Nc1ccccc1-3 [NSC 716451] showed an IC50 of 5.5 µM.
